The target of test [1] is T1, Human ENPP1 (Homo sapiens (Human), UniProt P22413).
Test [2] addresses ENPP1 expressed by MCF-7 cells (Homo sapiens (Human), UniProt P22413). Put plainly: cell-based.
Test [3] deals with T1, Human ENPP1. This is another data set of the same source.

Protein sequences, listed by entry. Tags and fused reporters are not part of them. Lines headed by an entry give the natural chain unless they say otherwise; changes in a name come on top.
UniProt P22413: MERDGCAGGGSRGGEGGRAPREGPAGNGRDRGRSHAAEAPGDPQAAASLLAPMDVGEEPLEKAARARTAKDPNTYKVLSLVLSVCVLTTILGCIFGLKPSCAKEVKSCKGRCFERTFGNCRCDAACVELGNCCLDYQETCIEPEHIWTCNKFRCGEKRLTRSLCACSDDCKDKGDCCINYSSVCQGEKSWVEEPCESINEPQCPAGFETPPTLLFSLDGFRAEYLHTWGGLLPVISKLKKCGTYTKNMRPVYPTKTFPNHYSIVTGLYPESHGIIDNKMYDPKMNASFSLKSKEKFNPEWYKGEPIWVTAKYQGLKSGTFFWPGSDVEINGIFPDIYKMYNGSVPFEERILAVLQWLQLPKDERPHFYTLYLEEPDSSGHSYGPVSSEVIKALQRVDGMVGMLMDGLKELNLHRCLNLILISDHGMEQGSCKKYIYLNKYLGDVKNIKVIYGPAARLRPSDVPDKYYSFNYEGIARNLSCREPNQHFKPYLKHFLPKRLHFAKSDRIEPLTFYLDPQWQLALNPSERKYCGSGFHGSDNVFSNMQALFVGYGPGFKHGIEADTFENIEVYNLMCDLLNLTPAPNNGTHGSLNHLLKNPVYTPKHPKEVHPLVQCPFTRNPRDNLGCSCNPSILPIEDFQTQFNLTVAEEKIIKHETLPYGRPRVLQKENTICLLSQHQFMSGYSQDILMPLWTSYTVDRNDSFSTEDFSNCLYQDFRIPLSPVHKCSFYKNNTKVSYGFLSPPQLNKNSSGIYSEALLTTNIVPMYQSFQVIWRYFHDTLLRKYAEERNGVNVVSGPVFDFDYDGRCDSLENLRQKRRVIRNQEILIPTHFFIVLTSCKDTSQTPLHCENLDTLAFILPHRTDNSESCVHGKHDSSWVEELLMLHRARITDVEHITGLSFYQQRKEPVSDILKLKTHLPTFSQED

Two compounds from patent US20260001886A1, “ENPP1 INHIBITORS I” (RE Ventures I, LLC, priority 2024, published 2026) can be followed below.

Structures are written as SMILES.

For `CC(C)c1cn(Cc2ccc(S(N)(=O)=O)c(-c3ccncc3)c2)c2nc(C3CC3)nn2c1=O` [Compound 5, 4-((2-cyclopropyl-6-isopropyl-7-oxo-[1,2,4]triazolo[1,5-a]pyrimidin-4(7H)-yl)methyl)-2-(pyridin-4-yl)benzenesulfonamide], the EC50 (in general, the concentration that produces a half-maximal response) in test [1] was 1 nM; in test [2] it was 63.1 nM. Also, the Kd (in general, the concentration at which binding is half-saturated) in test [3] is 0.631 nM.
The compound `CC(C)c1cn(Cc2ccc(S(N)(=O)=O)cc2O)c2nc(C3CC3)nn2c1=O` [Compound 24, 4-((2-cyclopropyl-6-isopropyl-7-oxo-[1,2,4]triazolo[1,5-a]pyrimidin-4(7H)-yl)methyl)-3-hydroxybenzenesulfonamide] had an EC50 in test [1] of 3.98 nM. Further, the Kd in test [3] is 3.16 nM.
